Biological target: Cdk9/cyclinT1 (Homo sapiens, UniProt P50750)
Assay: Cdk9/cyclinT1 IMAP protocol (fluorescence polarization)
Conditions: IC-50, CDK9; lower limit of assay 0.0005 micromolar

Protein sequences, listed by entry. Tags and fused reporters are not part of them.
UniProt P50750, whole entry: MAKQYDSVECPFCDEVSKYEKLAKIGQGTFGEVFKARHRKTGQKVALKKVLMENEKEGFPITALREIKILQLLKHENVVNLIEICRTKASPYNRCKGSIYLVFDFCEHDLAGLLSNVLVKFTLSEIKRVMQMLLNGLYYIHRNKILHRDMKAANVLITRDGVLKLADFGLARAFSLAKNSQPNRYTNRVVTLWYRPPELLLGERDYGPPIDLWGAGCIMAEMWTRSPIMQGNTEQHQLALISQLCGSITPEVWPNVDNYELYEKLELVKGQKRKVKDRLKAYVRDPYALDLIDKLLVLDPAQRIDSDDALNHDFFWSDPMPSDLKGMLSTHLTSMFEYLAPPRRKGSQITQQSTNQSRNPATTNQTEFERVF

Row | IC50 [nM] | Compound
1 | 3.7 | COC[C@H](C)N[C@H]1CC[C@H](Nc2cc(-c3cccc(NCC4CCOC(C)(C)C4)n3)c(Cl)cn2)CC1 (stereo partly drawn) [Compound 456, 5′-chloro-N6-((2,2-dimethyltetrahydro-2H-pyran-4-yl)methyl)-N2′-(trans-4-(((S)-1-methoxypropan-2-yl)amino)cyclohexyl)-[2,4′-bipyridine]-2′,6-diamine]
2 | 3.4 | COC[C@H](C)N[C@H]1CC[C@H](Nc2cc(-c3cccc(NC[C@H]4CCOC(C)(C)C4)n3)c(Cl)cn2)CC1 [Compound 461, 5′-chloro-N6-(((S)-2,2-dimethyltetrahydro-2H-pyran-4-yl)methyl)-N2′-(trans-4-(((S)-1-methoxypropan-2-yl)amino)cyclohexyl)-[2,4′-bipyridine]-2′,6-diamine]
3 | 4.3 | COC[C@H](C)N[C@H]1CC[C@H](Nc2cc(-c3cccc(NC[C@@H]4CCOC(C)(C)C4)n3)c(Cl)cn2)CC1 [Compound 460, 5′-chloro-N6-(((R)-2,2-dimethyltetrahydro-2H-pyran-4-yl)methyl)-N2′-(trans-4-(((S)-1-methoxypropan-2-yl)amino)cyclohexyl)-[2,4′-bipyridine]-2′,6-diamine]
